Data: ChEMBL document CHEMBL4330076, “Quinazolin-2,4-dione-Based Hydroxamic Acids as Selective Histone Deacetylase-6 Inhibitors for Treatment of Non-Small Cell Lung Cancer” (J Med Chem, 2019)

Species on record: Homo sapiens
Assay: Selectivity ratio of IC50 for human full-length recombinant HDAC1 expressed in baculovirus infected Sf9 insect cells to IC50 for human full-length recombinant HDAC6 expressed in baculovirus infected Sf9 insect cells

Question: How did the Ratio IC50 turn out when `COc1ccccc1CCn1c(=O)c2ccccc2n(Cc2ccc(C(=O)NO)cc2)c1=O` was run?
Answer: Its Ratio IC50 is 869.
